In patent US12246067:

How the values were obtained:
HLA-A03.01 (human) = assay: peptide-HLA class I complex stability, method not described; settings: remark: other sources report otherwise
HLA-A11.01 (human) = assay: as above; settings: remark: other sources report otherwise

Measured stability (HLA-A03.01 (human)): 2.5 h | Measured stability (HLA-A11.01 (human)): 15.7 h
B1: KRAS, G12C peptide … (peptide)
peptide: VVVGACGVGK
